This assay deals with MCF7-ADR (resistant). The assay can be described thus: Cytotoxicity, MCF7-ADR (resistant). Conditions: exposition time 72 h, RPMI 1640 + 20 mM HEPES + 2 mM L-glutamine. Type of assay: cell-based, human.

In general, IC50 refers to the concentration that gives 50% inhibition. Take `CC(=O)O[C@@]12CO[C@@H]1C[C@H](O)[C@@]1(C)C(=O)C(=O)C3=C(C)[C@@H](OC(=O)[C@H](O)[C@H](CC(C)C)NC(=O)OC(C)(C)C)C[C@@](O)([C@@H](OC(=O)c4ccccc4)[C@H]21)C3(C)C` [Compound 10, 13-[(2R,3S)-3-ter-butoxycarbonylamino-2-hydroxy3-isobutyl-propanoyl]-10-deacetyl-10-dehydro-baccatine III]: the IC50 worked out at 13 nM.

As for `CC(=O)O[C@@]12CO[C@@H]1C[C@H](O)[C@@]1(C)C(=O)C(=O)C3=C(C)[C@@H](OC(=O)[C@H](O)[C@H](CC(C)C)NC(=O)OC(C)(C)C)[C@@H]4OC(=O)O[C@]4([C@@H](OC(=O)c4ccccc4)[C@H]21)C3(C)C` [Compound 11, 13=[(2R,3S)-3-ter-butoxycarbonylamino-2-hydroxy-3-isobutyl-propanoyl]-10-dehydro-10-deacetyl-14β-hydroxy-baccatine III 1,14-carbonate], the concentration for half-maximal inhibition (IC50) amounted to 28 nM.

Values taken from patent publication US5750562A (priority 1995, dated 1998).
